Tests used:
[1] = target: T1, chimpanzee PSMA, full length (Pan troglodytes, UniProt Q04609 1-750 (human entry)); test: FACS, whole cell binding, chimp PSMA HEK; calculated EC50
T1 construct: On transfected HEK293F cells; also called chimp PSMA; H2Q3K5_PANTR
T1 chain: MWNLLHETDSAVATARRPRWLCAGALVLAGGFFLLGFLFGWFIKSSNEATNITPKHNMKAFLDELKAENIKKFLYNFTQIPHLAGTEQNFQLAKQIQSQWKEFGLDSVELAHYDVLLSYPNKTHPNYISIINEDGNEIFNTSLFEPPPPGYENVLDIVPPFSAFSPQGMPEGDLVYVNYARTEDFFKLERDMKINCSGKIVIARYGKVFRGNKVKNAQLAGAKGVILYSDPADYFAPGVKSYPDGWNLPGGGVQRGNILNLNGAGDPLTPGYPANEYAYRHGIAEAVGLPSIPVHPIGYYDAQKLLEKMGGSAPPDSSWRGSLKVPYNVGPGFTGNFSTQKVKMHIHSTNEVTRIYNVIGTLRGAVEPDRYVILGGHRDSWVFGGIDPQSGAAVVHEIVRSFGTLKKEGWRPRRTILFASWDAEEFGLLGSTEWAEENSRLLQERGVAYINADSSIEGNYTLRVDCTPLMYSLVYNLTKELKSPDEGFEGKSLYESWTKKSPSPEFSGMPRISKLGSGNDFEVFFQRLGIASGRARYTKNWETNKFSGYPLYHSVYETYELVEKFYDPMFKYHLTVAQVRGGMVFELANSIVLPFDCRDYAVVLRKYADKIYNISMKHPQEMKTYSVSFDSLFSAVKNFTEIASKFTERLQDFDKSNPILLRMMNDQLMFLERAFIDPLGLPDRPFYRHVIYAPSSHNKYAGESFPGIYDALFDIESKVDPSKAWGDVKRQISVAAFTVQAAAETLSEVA
Method: (§1) PSMA×CD3 bispecific antibodies were tested for binding to PSMA positive cell lines LNCAP, human PSMA-HEK, Chimpanzee-PSMA-HEK and Cynomolgous monkey PSMA-HEK. To assess the binding capabilities of the PSMA bispecific antibodies, the cell-binding assay was utilized (described previously). Briefly, PSMA expressing tumor cells are bound by bispecific antibodies at known concentrations and the bound antibody is detected by an anti-human kappa light chain PE conjugated detection reagent (Invitrogen). The Mean Fluorescents Intensity (MFI) is the measure of bound bispecific antibody. The MFI is converted to a relative EC₅₀. EC₅₀ is a commonly used dose-response curve, where the half maximal effective concentration or the EC₅₀ point is defined as the inflection point of the curve. EC₅₀ s were determined by measuring cell bound bispecific and known concentrations. […] The dose response curves were then diluted down to that of background or no bispecific binding. The inflection point of this curve reflects the EC₅₀ point. The calculated EC₅₀ is determined by taking the ug/ml amount of bispecific antibody at the EC₅₀ point and converting it to a molarity value based on the MW of the bispecific antibody. Bispecific antibodies were normalized for protein concentration and then incubated with the same number of cells expressing either human or cyno PSMA. […]

[2] = target: T2, Cynomolgous monkey PSMA, full length (Macaca fascicularis, UniProt Q04609 1-750 (human entry)); test: FACS, whole cell binding, cyno PSMA HEK; calculated EC50
T2 construct: On transfected HEK293F cells; also called cyno PSMA; EHH56646.1
T2 chain: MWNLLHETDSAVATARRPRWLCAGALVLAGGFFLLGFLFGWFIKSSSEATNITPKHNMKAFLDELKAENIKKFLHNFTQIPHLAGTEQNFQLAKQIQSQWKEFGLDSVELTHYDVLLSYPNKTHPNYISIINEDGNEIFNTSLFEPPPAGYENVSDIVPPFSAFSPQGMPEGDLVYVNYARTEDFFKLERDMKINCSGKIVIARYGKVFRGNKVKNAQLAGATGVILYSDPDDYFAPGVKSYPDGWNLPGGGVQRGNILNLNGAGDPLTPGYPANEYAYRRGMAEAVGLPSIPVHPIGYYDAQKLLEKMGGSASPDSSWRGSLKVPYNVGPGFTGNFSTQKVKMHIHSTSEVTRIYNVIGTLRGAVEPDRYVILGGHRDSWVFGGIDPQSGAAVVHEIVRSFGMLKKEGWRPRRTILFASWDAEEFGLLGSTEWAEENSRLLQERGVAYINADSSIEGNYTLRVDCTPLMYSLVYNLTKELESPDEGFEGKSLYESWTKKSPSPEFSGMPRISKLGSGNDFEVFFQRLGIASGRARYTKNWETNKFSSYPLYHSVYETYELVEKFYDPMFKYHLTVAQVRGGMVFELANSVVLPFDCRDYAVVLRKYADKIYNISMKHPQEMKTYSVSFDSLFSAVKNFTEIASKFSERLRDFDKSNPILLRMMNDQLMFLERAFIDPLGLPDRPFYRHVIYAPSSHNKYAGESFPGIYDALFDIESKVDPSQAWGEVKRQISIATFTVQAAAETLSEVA
Method: as §1

[3] = target: T3, human PSMA (prostate specific membrane antigen), full length (human, UniProt Q04609 1-750); test: FACS, whole cell binding, LNCaP; calculated EC50
T3 construct: On LNCaP or C4-2B cells (endogenous) or transduced HEK293F cells; also called FOLH1_HUMAN; hPSMA
Method: as §1

[4] = target: T4, recombinant chimpanzee PSMA extracellular domain (ECD) protein (Pan troglodytes, UniProt Q04609 44-750 (human entry)); test: SPR ProteOn, bsAb captured by anti-Fc
T4 construct: also called Chimp PSMA ECD; PSMG8
T4 chain: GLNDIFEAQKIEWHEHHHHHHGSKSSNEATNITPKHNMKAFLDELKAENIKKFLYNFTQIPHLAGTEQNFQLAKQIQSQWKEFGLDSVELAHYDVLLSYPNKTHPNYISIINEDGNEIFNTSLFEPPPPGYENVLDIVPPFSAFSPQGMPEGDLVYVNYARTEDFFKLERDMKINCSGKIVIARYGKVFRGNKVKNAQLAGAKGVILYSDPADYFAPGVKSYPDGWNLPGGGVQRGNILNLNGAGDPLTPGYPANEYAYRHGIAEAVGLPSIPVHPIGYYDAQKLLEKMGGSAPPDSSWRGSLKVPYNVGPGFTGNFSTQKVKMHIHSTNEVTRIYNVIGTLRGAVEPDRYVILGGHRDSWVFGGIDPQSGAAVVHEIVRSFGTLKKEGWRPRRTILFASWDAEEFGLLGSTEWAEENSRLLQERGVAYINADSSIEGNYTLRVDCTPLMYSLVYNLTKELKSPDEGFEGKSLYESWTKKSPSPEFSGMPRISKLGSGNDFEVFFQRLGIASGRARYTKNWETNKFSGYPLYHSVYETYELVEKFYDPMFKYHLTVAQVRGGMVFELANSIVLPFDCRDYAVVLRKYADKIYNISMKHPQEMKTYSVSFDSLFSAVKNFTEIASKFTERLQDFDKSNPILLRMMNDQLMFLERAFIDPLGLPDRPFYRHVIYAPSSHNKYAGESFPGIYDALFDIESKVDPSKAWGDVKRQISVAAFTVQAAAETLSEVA
Method: The interactions of PSMA×CD3 bispecific mAbs with target (recombinant Chimp, PSMA) were studied by Surface Plasmon Resonance (SPR) using a ProteOn XPR36 system (BioRad). […] Approximately 4400 RU (response units) of anti-Human IgG Fc antibodies were immobilized. The kinetic experiments were performed at 25° C. in running buffer (DPBS+0.03% P20+100 μg/ml BSA). To perform kinetic experiments, 100 RU of bispecific antibodies were captured followed by injections of analytes (recombinant Chimp PSMA ECD) at concentrations ranging from 3.7 nM to 300 nM (in a 3-fold serial dilution). The association phase was monitored for 3 minutes at 50 μL/min, then followed by 15 minutes of buffer flow (dissociation phase). The chip surface was regenerated with two 18 second pulses of 100 mM Phosphoric acid (H₃PO₄, Sigma, cat #7961) at 100 μL/min.
The collected data were processed using ProteOn Manager software. First, the data was corrected for background using inter-spots. Then, double reference subtraction of the data was performed by using the buffer injection for analyte injections. The kinetic analysis of the data was performed using a Langmuir 1:1 binding model. The result for each bispecific antibody was reported in the format of kₐ (On-rate), kd (Off-rate) and KD (equilibrium dissociation constant).

[5] = target: T1, chimpanzee PSMA, full length; test: FACS, whole cell binding, chimp PSMA HEK
Method: as §1

[6] = target: T3, human PSMA (prostate specific membrane …); test: FACS, whole cell binding, LNCaP
Method: as §1

[7] = target: T2, Cynomolgous monkey PSMA, full length; test: FACS, whole cell binding, cyno PSMA HEK
Method: as §1

[8] = target: T4, recombinant chimpanzee PSMA …; test: SPR Biacore 3000, bsAb captured by anti-Fc
Method: Binding to recombinant Chimp PSMA by Biacore. The Affinity measurements using Surface Plasmon Resonance (SPR) were performed using a Biacore 3000 optical biosensor (Biacore-GE Healthcare). A biosensor surface was prepared by coupling anti-Human IgG Fc (Jackson ImmunoResearch Laboratory, cat #109-005-098) to the carboxymethylated dextran surface of a CM-5 chip (Biacore, cat # BR-1000-12) using the manufacturer instructions for amine-coupling chemistry. Approximately 16,000 RU (response units) of anti-Human IgG Fc antibodies were immobilized in each of four flow cells. The kinetic experiments were performed at 25° C. in running buffer (DPBS+0.03% P20+[…]). Dilutions of antigen (recombinant Chimp PSMA, concentration either from 1.2-300 nM or 3.7-900 nM in a 3-fold serial dilution) were prepared in running buffer. About 100 RU of PSMA×CD3 bispecific mAbs were captured on flow cell 2 to 4 of the sensor chip. Flow cell 1 was used as reference surface. Capture of PSMA×CD3 bispecific mAb was followed by a 3 or 5-minute injection (association phase) of antigen (recombinant Chimp PSMA) at 50 μl/min, followed by 15 or 20 minutes of buffer flow (dissociation phase). The chip surface was regenerated by two 18-second injections of 100 mM Phosphoric acid (H₃PO₄, Sigma, cat #7961) at 50 μl/min.
The collected data were processed using BIAevaluation software (Biacore). First, double reference subtraction of the data was performed by subtracting the curves generated by buffer injection from the reference-subtracted curves for analyte injections. Then kinetic analysis of the data was performed using a Langmuir 1:1 binding model with global fit. The result for each PSMA×CD3 bispecific mAb was reported in the format of kₐ (On-rate), kd (Off-rate) and KD (Equilibrium dissociation constant).

B1: PS3B21 (bispecific antibody, human IgG4 S228P, kappa, lambda, F234A L235A)
heavy 1: not shown
light 1: not shown
heavy 2: EVQLVESGGGLVQPGGSLRLSCAASGFTFNTYAMNWVRQAPGKGLEWVARIRSKYNNYATYYAASVKGRFTISRDDSKNSLYLQMNSLKTEDTAVYYCARHGNFGNSYVSWFAYWGQGTLVTVSSASTKGPSVFPLAPCSRSTSESTAALGCLVKDYFPEPVTVSWNSGALTSGVHTFPAVLQSSGLYSLSSVVTVPSSSLGTKTYTCNVDHKPSNTKVDKRVESKYGPPCPPCPAPEAAGGPSVFLFPPKPKDTLMISRTPEVTCVVVDVSQEDPEVQFNWYVDGVEVHNAKTKPREEQFNSTYRVVSVLTVLHQDWLNGKEYKCKVSNKGLPSSIEKTISKAKGQPREPQVYTLPPSQEEMTKNQVSLTCLVKGFYPSDIAVEWESNGQPENNYKTTPPVLDSDGSFLLYSKLTVDKSRWQEGNVFSCSVMHEALHNHYTQKSLSLSLGK
light 2: QTVVTQEPSLTVSPGGTVTLTCRSSTGAVTTSNYANWVQQKPGQAPRGLIGGTNKRAPGTPARFSGSLLGGKAALTLSGVQPEDEAEYYCALWYSNLWVFGGGTKLTVLGQPKAAPSVTLFPPSSEELQANKATLVCLISDFYPGAVTVAWKADSSPVKAGVETTTPSKQSNNKYAASSYLSLTPEQWKSHRSYSCQVTHEGSTVEKTVAPTECS
- EC50 [1]: 8.81 nM
- EC50 [2]: 6.1 nM
- EC50 [3]: 5.2 nM
- Kd [4]: 7.1 nM
- koff [4]: 0.000473 s⁻¹
- kon [4]: 67000 M⁻¹ s⁻¹
- EC50 [5]: 1.25 µg/mL
- EC50 [6]: 0.737 µg/mL
- EC50 [7]: 0.86 µg/mL
- Kd [8]: 44.4 nM
- koff [8]: 0.000489 s⁻¹
- kon [8]: 11000 M⁻¹ s⁻¹

Source: patent US20200024360A1 (Janssen / Centocor, published 2020)
